The values below are quoted from earlier work in US9393219B2, “Monophenols and benzenediols sensitization of immune system against haptenized melanoma antigens” (ACADEMISCH ZIEKENHUIS BIJ DE UNIVERSITEIT VAN AMSTERDAM, priority 2005, dated 2016).

This data set concerns metastatic melanoma. As to conditions: cited from earlier work.

“IL-2: high-dose interleukin (IL)-2, immunotherapy for metastatic melanoma”: the cure rate entry (high-dose IL-2) is recorded as “about 5%”. Where the note is “immunotherapy”, the response rate entry is “approximately 15%”.
